Apparent affinities of Ab-14 variants for a coronavirus HR2 peptide

The measurements come from Engelhart et al. 2022 (doi:10.1038/s41597-022-01779-4) through the FLAb antibody collection.

All variants were tested on one target, the spike HR2 peptide PDVDLGDISGINAS (SARS-CoV-2).

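The starting antibody came from a phage panning campaign against this peptide. AAYL50 was designed without a model: most single CDR substitutions and a random sample of double and triple ones. AlphaSeq pools MATa yeast showing the antibodies with MATalpha yeast showing the peptide. Mating (16 h, 30 °C) was followed by selection of diploids and sequencing of their barcodes. A regression on co-assayed BCL2-family reference pairs converts the normalised counts of each replicate to an apparent Kd. Mating was done three times.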

Each scFv is VH, the linker GGGGSGGGGSGGGGS, VL, as in the parent Ab-14, and differs from it in the CDRs of the light chain only.
VH: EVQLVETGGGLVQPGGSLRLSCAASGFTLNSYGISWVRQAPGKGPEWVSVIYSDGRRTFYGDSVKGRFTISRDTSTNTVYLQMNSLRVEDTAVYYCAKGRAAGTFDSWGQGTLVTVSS
VL: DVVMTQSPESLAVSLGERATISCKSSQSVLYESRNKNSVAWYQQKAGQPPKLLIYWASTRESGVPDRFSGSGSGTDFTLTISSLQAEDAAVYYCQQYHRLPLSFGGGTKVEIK

Changes read parent residue, position, new residue, counted from the first residue of the VL shown.
This list gathers variants with a substitution at S103 (VL, numbered from residue 1).
Values are apparent Kd, the geometric mean of the replicates that gave a signal; lower means stronger binding.
A pair that was not seen in any replicate is written "nd"; this usually means weak binding, but a binder can also be missed.
Parent in this assay: reference entry 4.4 nM, copy in this library 48 nM.

Variant A57G/H98Y/S103H gave 3.8 nM (3 of 3 replicates). Variant S58Y/T59S/S103L gave nd (0 of 3 replicates). For N35W/S58G/S103L, the assay gave nd (0 of 3 replicates). Variant S38W/A40L/S103V showed 130 µM (2 of 3 replicates). For S28M/A57D/S103Q, the assay gave nd (0 of 3 replicates).

Variant W56Q/S58M/S103M gave 1.8 nM (3 of 3 replicates). Variant K36H/L102M/S103G gave 20 nM (3 of 3 replicates). Variant K36L/Y97K/S103M gave 13 nM (3 of 3 replicates). Variant A57K/R60I/S103P gave 52 µM (3 of 3 replicates). Variant R34N/P101F/S103C gave nd (0 of 3 replicates).

Variant S25M/H98N/S103C showed 5.1 nM (3 of 3 replicates). With S58F/R60D/S103H the result was nd (0 of 3 replicates). With S26W/Q96P/S103K the result was 9.8 µM (1 of 3 replicates). Variant N37V/P101D/S103N showed 11 µM (2 of 3 replicates). Variant K36N/N37D/S103F showed 130 nM (3 of 3 replicates).

Variant V29F/S103G showed 25 nM (3 of 3 replicates). For N37E/E61R/S103D, the assay gave 12 µM (3 of 3 replicates). Variant E61C/S103V showed 5.2 nM (3 of 3 replicates). Variant S26M/A40N/S103R showed 34 µM (1 of 3 replicates). Variant E32P/S62P/S103Y gave 170 nM (3 of 3 replicates).

Variant N37L/H98R/S103I showed 5.4 µM (1 of 3 replicates). For S58D/H98Q/S103R, the assay gave 560 nM (3 of 3 replicates). Variant S58V/Y97I/S103W showed 490 nM (3 of 3 replicates). Variant S62Y/Y97M/S103R gave 5.8 µM (1 of 3 replicates). Variant R34H/R99I/S103Y showed 46 nM (3 of 3 replicates).

With S28D/E32C/S103K the result was 7.9 µM (2 of 3 replicates). For N37T/L102C/S103G, the assay gave 4.2 µM (2 of 3 replicates). Variant V39I/R99I/S103A showed 30 nM (3 of 3 replicates). With N37Q/S103V the result was 66 nM (3 of 3 replicates). For E32N/S103V, the assay gave 14 nM (3 of 3 replicates).

For L30T/E61Y/S103L, the assay gave 8.8 nM (3 of 3 replicates). For R34P/Q95L/S103C, the assay gave 32 µM (1 of 3 replicates). For E32P/Q96N/S103D, the assay gave 16 µM (1 of 3 replicates). Variant R34A/Y97L/S103N showed nd (0 of 3 replicates). Variant Q96E/H98S/S103E gave nd (0 of 3 replicates).

Variant K36F/N37Y/S103M gave nd (0 of 3 replicates). With S33A/K36W/S103D the result was 50 nM (3 of 3 replicates). With S28M/Y31T/S103K the result was nd (0 of 3 replicates). For A40F/T59G/S103V, the assay gave nd (0 of 3 replicates). Variant Y97P/L102T/S103L showed 8.4 nM (3 of 3 replicates).

Variant N35K/E61D/S103W gave 33 nM (3 of 3 replicates). Variant L30Y/N35T/S103L gave 30 nM (3 of 3 replicates). Variant Q95S/P101V/S103K gave 13 nM (3 of 3 replicates). Variant N35Q/E61D/S103T showed 20 nM (3 of 3 replicates). For Y31K/V39Q/S103A, the assay gave 2.7 µM (1 of 3 replicates).

For A57R/Q96S/S103R, the assay gave 1.8 µM (3 of 3 replicates). For N35R/V39H/S103K, the assay gave 5.6 µM (1 of 3 replicates). With Y97A/L100Q/S103N the result was 41 µM (3 of 3 replicates). Variant E32A/Q95Y/S103L gave 1.6 µM (1 of 3 replicates).

For reference, 3 entries of the list once more:

changes,Kd,replicates with signal
A57R/Q96S/S103R,1.8 µM,3 of 3
A57K/R60I/S103P,52 µM,3 of 3
N35Q/E61D/S103T,20 nM,3 of 3

As a blank, each scFv also met three strains without target: over library AAYL50, 18% of these pairings were detected, typically at 15 µM and seldom below 970 nM.